For this experiment, the target named is T1, retinoic acid 4-hydroxylase (CYP26A1) (Homo sapiens, UniProt O43174).
T1 construct: endogenous in cells; host or cells: MCF-7 human breast cancer cells
T1 sequence (O43174 1-497): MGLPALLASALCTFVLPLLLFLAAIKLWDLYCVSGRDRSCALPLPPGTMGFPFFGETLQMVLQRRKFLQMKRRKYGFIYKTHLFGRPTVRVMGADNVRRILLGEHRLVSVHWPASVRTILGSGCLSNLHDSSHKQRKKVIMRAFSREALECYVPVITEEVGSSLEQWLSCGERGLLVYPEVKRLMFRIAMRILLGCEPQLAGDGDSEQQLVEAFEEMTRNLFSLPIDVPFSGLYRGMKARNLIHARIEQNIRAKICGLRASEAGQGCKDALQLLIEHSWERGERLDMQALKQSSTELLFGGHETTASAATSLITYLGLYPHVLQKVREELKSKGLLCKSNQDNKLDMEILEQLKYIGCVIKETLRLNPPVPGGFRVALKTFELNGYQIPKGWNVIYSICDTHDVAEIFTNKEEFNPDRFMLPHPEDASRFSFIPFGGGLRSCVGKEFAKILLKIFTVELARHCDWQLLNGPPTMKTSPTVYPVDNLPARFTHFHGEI
As to the kind of experiment: MCF-7 cellular assay for inhibition of metabolism of all-trans retinoic acid. It is filed as cell-based. As to conditions: mean (±5%) of two experiments.

Molecules are shown by their SMILES.

The term IC50 denotes the concentration that inhibits the measured activity by half. Low values mean greater potency in that assay, high ones weaker potency in that assay.

`Clc1cccc(C(c2ccc3[nH]cnc3c2)n2ccnc2)c1` (stereo not shown) [liarozole, reference compound] returned an IC50 of 7 µM.

These data come from PMC7464559, “Synthesis, Optimization, Antifungal Activity, Selectivity, and CYP51 Binding of New 2-Aryl-3-azolyl-1-indolyl-propan-2-ols” (Pharmaceuticals, 2020).
